The text below walks through data of US9296716B2, “Androgen receptor ligands” (THE PROVOST, FELLOWS, FOUNDATION SCHOLARS, & THE OTHER …, priority 2011, dated 2016).

The chains behind the UniProt entries cited, without tags or fusion partners. Residues count along the entry.
UniProt P10275, 669-900 limits assumed: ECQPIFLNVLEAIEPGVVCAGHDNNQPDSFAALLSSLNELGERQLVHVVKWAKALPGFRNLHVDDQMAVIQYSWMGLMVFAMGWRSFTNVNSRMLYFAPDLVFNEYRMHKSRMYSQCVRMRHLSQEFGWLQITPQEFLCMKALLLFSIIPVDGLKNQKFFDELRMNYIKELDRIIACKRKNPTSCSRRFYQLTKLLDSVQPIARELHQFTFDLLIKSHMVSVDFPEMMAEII
UniProt P10275, 669-900 T878A: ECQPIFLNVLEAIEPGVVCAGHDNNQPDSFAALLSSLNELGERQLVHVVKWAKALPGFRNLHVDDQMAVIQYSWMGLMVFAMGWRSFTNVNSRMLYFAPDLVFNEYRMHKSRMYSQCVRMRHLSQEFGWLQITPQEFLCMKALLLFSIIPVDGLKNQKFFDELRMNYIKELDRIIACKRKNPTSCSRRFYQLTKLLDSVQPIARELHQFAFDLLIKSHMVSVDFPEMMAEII

Like-named read-outs stand apart in the source and are kept apart here.

One assay has as its target AR-LBD wt (Homo sapiens, UniProt P10275). Kind of assay: Lanthascreen TR-FRET AR coactivator (D11-FxxLF) assay, AR-LBD wt. The assay is classed as biochemical.
The next assay addresses T1, AR-LBD T877A mutant (Homo sapiens, UniProt P10275, T878A).
T1 construct: purchased Invitrogen PV4667
Kind of assay: TR-FRET coactivator assay, AR T877A mutant. The format is biochemical. (TR-FRET usually uses a lanthanide donor and a delayed reading to cut background.)

In the case of `COc1cc(/C=N/NC(=O)c2cc3c(ccc4ccccc43)o2)cc(I)c1O` [MDG15], the IC50 against AR-LBD wt turned out to be 43.2 µM.
`O=C(N/N=C/c1cccc(O)c1O)c1cc2ccccc2cc1O` [MDG173] came in with an IC50 at AR-LBD wt of 40.8 ± 2.5 µM.
With `CCCOc1ccc(/C=N/NC(=O)c2cc3c(ccc4ccccc43)o2)cc1` [MDG508], the IC50 on AR-LBD wt (read-out: Activity (AR wt TR-FRET)) was found to be 17.9 ± 6.9 µM; at AR-LBD T877A mutant, 28.1 ± 6.7 µM.
